# Experimental data as given in patent US12569471B2, “Method of treatment of CNS disorders” (Supernus Pharmaceuticals, Inc., priority 2009, dated 2026).
# Sequences of proteins named here, by UniProt entry; tags and fusion partners are left off. Residues count along the entry.
# UniProt A0ACM8Q262, 1-400: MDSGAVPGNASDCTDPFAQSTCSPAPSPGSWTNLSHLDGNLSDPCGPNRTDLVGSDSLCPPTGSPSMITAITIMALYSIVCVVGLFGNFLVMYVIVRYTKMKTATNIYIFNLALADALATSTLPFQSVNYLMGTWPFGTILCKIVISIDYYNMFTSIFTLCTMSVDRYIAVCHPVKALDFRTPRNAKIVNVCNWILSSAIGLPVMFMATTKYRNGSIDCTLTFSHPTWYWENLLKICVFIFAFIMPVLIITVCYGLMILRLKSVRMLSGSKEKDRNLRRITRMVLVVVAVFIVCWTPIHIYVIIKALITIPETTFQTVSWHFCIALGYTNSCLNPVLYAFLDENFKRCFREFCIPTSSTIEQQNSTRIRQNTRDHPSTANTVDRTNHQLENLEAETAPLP
# Molecular target: μ-opioid receptors in the guinea pig ileum (Cavia porcellus, UniProt A0ACM8Q262)
# Test: μ-opioid receptor bioassay, test for antagonist activity (DAMGO-induced decrease in twitch contraction amplitude)
# Conditions: mean, n=2
smiles,measurement,setting,value
C=CCN1CC[C@]23c4c5ccc(O)c4O[C@H]2C(=O)CC[C@@]3(O)[C@H]1C5 [Naloxone],antagonist activity: response to DAMGO (1.0E−07M) in presence of compound,compound 1.0E−07 M,−5% of the control response to DAMGO
same,antagonist activity: response to DAMGO (1.0E−07M) in presence of compound,compound 2.0E−08 M,40% of the control response to DAMGO
same,antagonist activity: response to DAMGO (1.0E−07M) in presence of compound,compound 5.0E−09 M,88% of the control response to DAMGO
